We go through one substance from article PMC9181987, “Disclosing the Potential of Fluorinated Ionic Liquids as Interferon-Alpha 2b Delivery Systems” (Nanomaterials, 2022).

The nature of data set [1]: Dynamic light scattering: aggregate size and polydispersity index. It is filed as physicochemical. Conditions: 50 μg/mL IFN-α 2b; 150 mM NaH2PO4; 25°C. As to the method: These concentrations were chosen to comprise two different aggregates of each FIL, above the 1st CAC and the 3rd CAC. […] Therefore, 20 μL was transferred into a quartz cell of 10 mm pathlength and measured at 25 °C.
Moreover, the polydispersity index (PdI) was obtained by DLS which determines the heterogeneity of the sample in the function of the size.

Data set [2] in a line: STEM/TEM images: aggregate size. It is filed as physicochemical. Conditions: IFN-α 2b at 0.0001 μg/mL; 150 mM NaH2PO4 pH 7.4.
For another data set, the target named is T1, IFN-α 2b (Homo sapiens, UniProt P01563).
T1 construct: purchased Sigma-Aldrich SRP4595; host or cells: E. coli
Further details: method as in ref 62 = [62]; 62. Nikolaiev R. Stepanenko Y. Chernykh S. Melnichuk N. Tkachuk Z. Conformational, Fluorescence and Energy Parameters of Interferon A2b with Different Forms of Oligoribonucleotides and Adenosine Monop. Particulars: cited from earlier work.

Turning to “IFN-α 2b: Interferon-alpha 2b, human recombinant, SRP4595, expressed in E. coli; therapeutic protein”, the “Polydispersity index (PdI)” value in data set [1] was 0.427. Moreover, the “aggregate size, TEM image” value in data set [2] is listed as not above 2 μm. The “unquenched lifetime τ0” value in the data set with IFN-α 2b is recorded as “approximately 2.95 × 10^−9 s”.
